Results published in ChEMBL document CHEMBL5029148, “Discovery of Arylsulfonamides as Dual Orexin Receptor Agonists” (J Med Chem, 2021).

Amino acid sequences for entries named in this document (tags omitted).
UniProt O43613, whole entry: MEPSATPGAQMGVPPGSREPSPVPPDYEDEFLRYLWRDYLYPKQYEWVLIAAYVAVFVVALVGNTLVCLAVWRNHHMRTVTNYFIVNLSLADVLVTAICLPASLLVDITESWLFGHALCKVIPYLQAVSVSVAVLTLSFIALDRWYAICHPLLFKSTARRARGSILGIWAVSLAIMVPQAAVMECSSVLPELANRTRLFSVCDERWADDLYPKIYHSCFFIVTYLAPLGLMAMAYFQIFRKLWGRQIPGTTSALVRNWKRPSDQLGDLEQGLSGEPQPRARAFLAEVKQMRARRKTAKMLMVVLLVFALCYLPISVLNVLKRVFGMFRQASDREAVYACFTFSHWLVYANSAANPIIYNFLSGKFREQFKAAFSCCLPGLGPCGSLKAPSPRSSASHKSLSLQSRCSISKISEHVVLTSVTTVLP

Molecular target: Orexin/Hypocretin receptor type 1 (Homo sapiens, UniProt O43613)
Assay: Agonist activity at human OX1R stably expressed in CHO RD-HGA16 cells assessed as fluorescence changes measured after 30 mins by calcium mobilization assay
Type: functional, cell-based

Compound	EC50 [µM]
COc1ccc(/C=C/C(=O)N(C)C)cc1S(=O)(=O)Nc1cccc(NCCNC(=O)c2cccc(C)c2)c1	> 10
COc1ccc(-c2cccc(C(=O)N(C)C)c2)cc1S(=O)(=O)Nc1cccc(NCCNC(=O)c2cccc(C)c2)c1	0.326
COc1ccc(CCC(=O)N(C)C)cc1S(=O)(=O)Nc1cccc(NCCNC(=O)c2cccc(C)c2)c1	> 10
